Target: human H4 receptor (Homo sapiens, UniProt Q9H3N8)
Assay: Binding Assay on Recombinant Human Histamine H4 Receptor
Conditions: Table 2; [3H] histamine competition binding, membranes of SK-N-MC cells transfected with human H4 receptor; average of results

The chains behind the UniProt entries cited, without tags or fusion partners.
UniProt Q9H3N8, whole entry: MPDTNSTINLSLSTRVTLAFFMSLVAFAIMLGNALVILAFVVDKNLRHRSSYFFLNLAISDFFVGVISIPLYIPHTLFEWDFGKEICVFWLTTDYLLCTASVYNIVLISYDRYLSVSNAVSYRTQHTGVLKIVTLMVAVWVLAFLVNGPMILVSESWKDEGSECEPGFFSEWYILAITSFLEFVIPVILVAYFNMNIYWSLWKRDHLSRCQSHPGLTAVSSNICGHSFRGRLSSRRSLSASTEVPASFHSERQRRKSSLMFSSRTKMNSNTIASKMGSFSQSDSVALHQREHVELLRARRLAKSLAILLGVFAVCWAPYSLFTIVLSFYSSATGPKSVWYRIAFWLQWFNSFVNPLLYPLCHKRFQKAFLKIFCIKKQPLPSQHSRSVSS

Compound | Ki
CN1CCN(c2cc(C34CC5CC(CC(C5)C3)C4)nc(N)n2)CC1 | 6 nM
CN[C@@H]1CCN(c2cc(C34CC5CC(CC(C5)C3)C4)nc(N)n2)C1 | 2 nM

Source: US8716475B2, “2-aminopyrimidine modulators of the histamine H4 receptor” (Janssen Pharmaceutica NV, priority 2007, dated 2014)
